## Yeast mating assay 2: variants of the scFv Ab-91

Reference: Engelhart et al. 2022, doi:10.1038/s41597-022-01779-4. File: FLAb, binding data.

Target peptide (SARS-CoV-2 spike, HR2 region): PDVDLGDISGINAS

Each scFv is VL, a 15-residue (Gly4Ser)3 linker, VH, as in the parent Ab-91, and differs from it in the CDRs of the heavy chain only.
VL: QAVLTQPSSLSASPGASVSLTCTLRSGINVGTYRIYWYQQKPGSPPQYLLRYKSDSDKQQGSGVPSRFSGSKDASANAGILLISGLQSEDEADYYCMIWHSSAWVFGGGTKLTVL
VH: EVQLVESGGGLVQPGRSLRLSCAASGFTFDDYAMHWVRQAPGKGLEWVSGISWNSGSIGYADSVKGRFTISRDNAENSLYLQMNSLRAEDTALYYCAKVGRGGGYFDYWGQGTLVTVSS

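The starting antibody came from a phage panning campaign against this peptide. Library AAYL51 holds single substitutions and randomly drawn double and triple substitutions in the CDRs. AlphaSeq pools MATa yeast showing the antibodies with MATalpha yeast showing the peptide. After mating in shaken culture at 30 °C for 16 h, diploids were selected and their barcode pairs sequenced. Each replicate has its own calibration line, from reference interactions of the BCL2 family. Each pool was mated in three replicate cultures.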

Each variant is given by its three heavy chain CDRs, as the data file delimits them; those of the parent are GFTFDDYAMH, GISWNSGSIGYADSVK, VGRGGGYFDY. This list gathers variants with a substitution at D30 (VH, numbered from residue 1). The read-out is the apparent dissociation constant on a log10 scale (nM): the lower, the stronger. Averages over replicates are reported, and they cover detected replicates only. "nd" marks a missing value. The strain was present, yet no cells mated with the target were sequenced in any replicate, which points to weak or no binding. In this assay the parent's reference entry averaged 1.86; its copy inside this library read 0.88. Three control strains display no target. For library AAYL51, 21% of the pairings with them gave a signal, with a median of 4.54 and one signal in twenty below 3.26, so weak values seen in few replicates may be background. For each scFv, signals with the empty controls are counted beside the result.

Variant GFTRLDYAMH | GISWNSGSIGPADSVK | VGRGGGYFDY gave nd (0 of 3 replicates; controls 2 of 9). With GFTFKDYAMH | GIKWNSGSIGYADKVK | VGRGGGYFDY the result was 4.58 (1 of 3 replicates; controls 7 of 9). For GFTFVDYAMH | GISWNSGSIGYAHSVK | VGRGGGYTDY, the assay gave 3.26 (3 of 3 replicates; controls 0 of 9). Variant GKTFYDYAMH | GISWNSGSIGYADSVK | PGRGGGYFDY gave 2.42 (3 of 3 replicates; controls 3 of 9). Variant GFTFEKYAMH | GISWNRGSIGYADSVK | VGRGGGYFDY showed 4.01 (3 of 3 replicates; controls 5 of 9). Variant GFTFPDYAMH | GISQNSGSIGYADSVK | VGRNGGYFDY gave nd (0 of 3 replicates; controls 2 of 9). For GFTFADYAMH | GISWNSGSIGYADSVK | VGRGGMYFDY, the assay gave 1.81 (3 of 3 replicates; controls 1 of 9). With GFTFHDYAMH | GIAWNSGSIGYADSVK | NGRGGGYFDY the result was 4.28 (2 of 3 replicates; controls 1 of 9).

Variant GFTFSDYAMH | GISWNSGAIGYAKSVK | VGRGGGYFDY gave 1.89 (3 of 3 replicates; controls 1 of 9). Variant GFTFKDYAMH | GISWNSGSIGYADSVP | VGRGAGYFDY gave 1.98 (3 of 3 replicates; controls 4 of 9). For GFTFRDYAMH | GISWNSGSIGYADTVK | VGRGGGYFDY, the assay gave 1.79 (3 of 3 replicates; controls 1 of 9). With GRTFMDYAMH | LISWNSGSIGYADSVK | VGRGGGYFDY the result was 5.65 (2 of 3 replicates; controls 7 of 9). For GFTFGDYAMH | GISWFSGSIGYADYVK | VGRGGGYFDY, the assay gave 2.65 (1 of 3 replicates; controls 0 of 9). For GFTFGDYAMH | GISWNSGSIGYMDSVK | VGRGGGYFDY, the assay gave 3.76 (3 of 3 replicates; controls 4 of 9). Variant GFTFADYAMH | GISWNSGSEGYADSGK | VGRGGGYFDY gave nd (0 of 3 replicates; controls 0 of 9). With GTTFLDYAMH | GISWNSGSIGYADSCK | VGRGGGYFDY the result was 4.89 (2 of 3 replicates; controls 3 of 9).

Variant GFTFLDYAMH | GTSWNSGSIGYADSVK | VGRGGDYFDY showed nd (0 of 3 replicates; controls 1 of 9). Variant GFTRVDYAMH | GISWNSGSIGYAWSVK | VGRGGGYFDY showed nd (0 of 3 replicates; controls 2 of 9). For GFTFADYAMH | GISWNSGSIGYADSVK | VGREGGVFDY, the assay gave 2.72 (3 of 3 replicates; controls 0 of 9). With GFTFYDYAMH | GISWNSGSEGYADSVP | VGRGGGYFDY the result was nd (0 of 3 replicates; controls 1 of 9). Variant GFTFLDYAMH | YISLNSGSIGYADSVK | VGRGGGYFDY showed 3.95 (1 of 3 replicates; controls 3 of 9). For GFTFMDYAMH | GISWMSGSIGYADSVK | VGRGGRYFDY, the assay gave nd (0 of 3 replicates; controls 3 of 9). For GFTFADYAMH | WISWESGSIGYADSVK | VGRGGGYFDY, the assay gave nd (0 of 3 replicates; controls 3 of 9). Variant GFTECDYAMH | DISWNSGSIGYADSVK | VGRGGGYFDY showed nd (0 of 3 replicates; controls 2 of 9).

With GFTFNDYAMH | GISWNSGSIGWADSVK | VGRGGGYFDG the result was 2.76 (3 of 3 replicates; controls 2 of 9). For GFTFQDYAMH | GISWNSGWIGYADSVK | VGRGGRYFDY, the assay gave nd (0 of 3 replicates; controls 1 of 9). Variant GFTFKDYAMH | GISWNSGSIGYADSVK | VGRGGGYFDY gave 1.81 (3 of 3 replicates; controls 2 of 9). For GFTFTDYAMF | GISWNSGWIGYADSVK | VGRGGGYFDY, the assay gave 5.76 (2 of 3 replicates; controls 5 of 9). Variant GFTFIDYAMH | GISWNSGKIGYAQSVK | VGRGGGYFDY gave 4.31 (2 of 3 replicates; controls 3 of 9). For GCTFFDYAMH | GISWNSGSIGYADSVK | VGNGGGYFDY, the assay gave 3.67 (1 of 3 replicates; controls 0 of 9). For GFTFKDYAMH | GISWNSGIRGYADSVK | VGRGGGYFDY, the assay gave nd (0 of 3 replicates; controls 1 of 9). For GFTFCDYAMH | GISWNDGSIGYADSVK | VGRGGGYFDY, the assay gave nd (0 of 3 replicates; controls 0 of 9).

For GFTFIDYAMH | GISTNSGSIGYADSVK | VGRGGGYFDY, the assay gave 5.94 (1 of 3 replicates; controls 1 of 9). Variant GFTFEDPAMH | GISWNSGSIGYADNVK | VGRGGGYFDY gave 1.59 (1 of 3 replicates; controls 0 of 9). For GFTFCDYAMH | GISWNSGSIAYADSVK | VGRGGGYFDY, the assay gave 5.30 (1 of 3 replicates; controls 3 of 9). For GFTFADYAMS | GISWNSGSIGYADSVK | VGRGGGYFDY, the assay gave 4.75 (1 of 3 replicates; controls 2 of 9). For GFTFHDVAMH | GISWNSGSIGYADSVK | VGRGGGYFDY, the assay gave 0.63 (3 of 3 replicates; controls 2 of 9). Variant GFTFIDVAMH | GISWNSGSIGYADSVL | VGRGGGYFDY gave 3.24 (3 of 3 replicates; controls 1 of 9). Variant GFTFADYAMH | GISWNSGSISYADSLK | VGRGGGYFDY showed nd (0 of 3 replicates; controls 3 of 9). With GFTFWDYHMH | GISWNSGSIGYADSVK | VGFGGGYFDY the result was nd (0 of 3 replicates; controls 0 of 9).

For GFTFGDQAMH | GISWNSGSIGYGDSVK | VGRGGGYFDY, the assay gave 0.98 (3 of 3 replicates; controls 4 of 9). Variant GFTFQDYAMH | GISWNSGSIGEADSVK | VGRGGGYFDY gave 0.29 (3 of 3 replicates; controls 0 of 9). For GFRFQDYAMH | GISWNSGSIGYADSVK | VWRGGGYFDY, the assay gave 1.21 (1 of 3 replicates; controls 0 of 9). Variant GFTFVDYDMH | DISWNSGSIGYADSVK | VGRGGGYFDY gave 5.03 (2 of 3 replicates; controls 3 of 9). Variant GFTFTDYAMH | GISWNSGSIGYADSVK | VGRGHGYFDY gave 4.56 (1 of 3 replicates; controls 1 of 9). Variant GFTFEDYAMH | GIAWNSGHIGYADSVK | VGRGGGYFDY gave nd (0 of 3 replicates; controls 0 of 9). Variant RFTFIDYAMH | GISWNSGSIGYADSVK | VGWGGGYFDY gave nd (0 of 3 replicates; controls 0 of 9). With GFTFQCYAMH | GISWNSGSIGYADSVK | VGRGWGYFDY the result was 4.93 (1 of 3 replicates; controls 1 of 9).

For GFTFPDYAMH | GILWNSGSIGYADSVK | VGRWGGYFDY, the assay gave 4.19 (1 of 3 replicates; controls 1 of 9). Variant GFTFEDYAMH | GIFRNSGSIGYADSVK | VGRGGGYFDY showed 5.07 (2 of 3 replicates; controls 3 of 9). With GFTFWDYAMH | GISWNSGSIGYRWSVK | VGRGGGYFDY the result was 4.68 (1 of 3 replicates; controls 2 of 9). With GFTFCDYAMH | GISWNSGSIGYADSVK | VGRGGGYFDY the result was 5.71 (2 of 3 replicates; controls 3 of 9).

The opening 9 entries, copied out:

With GFTRLDYAMH | GISWNSGSIGPADSVK | VGRGGGYFDY the result was nd (0 of 3 replicates; controls 2 of 9).
With GFTFKDYAMH | GIKWNSGSIGYADKVK | VGRGGGYFDY the result was 4.58 (1 of 3 replicates; controls 7 of 9).
With GFTFVDYAMH | GISWNSGSIGYAHSVK | VGRGGGYTDY the result was 3.26 (3 of 3 replicates; controls 0 of 9).
With GKTFYDYAMH | GISWNSGSIGYADSVK | PGRGGGYFDY the result was 2.42 (3 of 3 replicates; controls 3 of 9).
With GFTFEKYAMH | GISWNRGSIGYADSVK | VGRGGGYFDY the result was 4.01 (3 of 3 replicates; controls 5 of 9).
With GFTFPDYAMH | GISQNSGSIGYADSVK | VGRNGGYFDY the result was nd (0 of 3 replicates; controls 2 of 9).
With GFTFADYAMH | GISWNSGSIGYADSVK | VGRGGMYFDY the result was 1.81 (3 of 3 replicates; controls 1 of 9).
With GFTFHDYAMH | GIAWNSGSIGYADSVK | NGRGGGYFDY the result was 4.28 (2 of 3 replicates; controls 1 of 9).
With GFTFSDYAMH | GISWNSGAIGYAKSVK | VGRGGGYFDY the result was 1.89 (3 of 3 replicates; controls 1 of 9).